# Biological target: Btk (Homo sapiens (Human), UniProt Q06187)
# Protein sequences, listed by entry. Tags and fused reporters are not part of them. Lines headed by an entry give the natural chain unless they say otherwise; changes in a name come on top.
# UniProt Q06187: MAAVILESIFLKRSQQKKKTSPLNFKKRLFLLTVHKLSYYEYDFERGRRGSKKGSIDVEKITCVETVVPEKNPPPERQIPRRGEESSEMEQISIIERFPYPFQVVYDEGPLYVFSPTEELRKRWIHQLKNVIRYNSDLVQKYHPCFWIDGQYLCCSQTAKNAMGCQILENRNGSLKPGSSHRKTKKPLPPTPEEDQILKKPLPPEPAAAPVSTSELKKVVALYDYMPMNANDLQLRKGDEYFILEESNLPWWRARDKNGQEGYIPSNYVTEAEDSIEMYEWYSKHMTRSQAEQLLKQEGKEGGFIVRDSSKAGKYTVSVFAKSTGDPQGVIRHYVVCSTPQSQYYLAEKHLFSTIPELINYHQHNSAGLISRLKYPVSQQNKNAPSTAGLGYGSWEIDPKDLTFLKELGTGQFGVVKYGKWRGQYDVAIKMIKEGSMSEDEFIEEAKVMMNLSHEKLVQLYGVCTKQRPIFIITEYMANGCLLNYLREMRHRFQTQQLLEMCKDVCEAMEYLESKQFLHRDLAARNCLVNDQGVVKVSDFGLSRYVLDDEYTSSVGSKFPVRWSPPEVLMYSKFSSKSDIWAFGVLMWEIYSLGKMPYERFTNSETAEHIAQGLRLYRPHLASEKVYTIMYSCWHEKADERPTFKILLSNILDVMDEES
# Test: standard biochemical Btk Kinase Assay (Example 901)
# Settings: Table 2
row,SMILES,IC50 [nM]
1,"CN1CCN(c2ccc(Nc3cc(-c4cc(F)cc(N5CCn6c(cc7c6CCCC7)C5=O)c4CO)cn(C)c3=O)nc2)CC1 [Example 197, 2-(5-fluoro-2-(hydroxymethyl)-3-(1-methyl-5-(5-(4-methylpiperazin-1-yl)pyridin-2-ylamino)-6-oxo-1,6-dihydropyridin-3-yl)phenyl)-3,4,6,7,8,9-hexahydropyrazino[1,2-a]indol-1(2H)-one]",2
2,"Cn1cc(-c2cc(F)cc(N3CCn4c(cc5c4CCCC5)C3=O)c2CO)cc(Nc2ccc(N3CCN(C4COC4)CC3)cn2)c1=O [Example 210, 2-(5-fluoro-2-(hydroxymethyl)-3-(1-methyl-5-(5-(4-(oxetan-3-yl)piperazin-1-yl)pyridin-2-ylamino)-6-oxo-1,6-dihydropyridin-3-yl)phenyl)-3,4,6,7,8,9-hexahydropyrazino[1,2-a]indol-1(2H)-one]",3.9

# From patent US8618107B2 (Gilead Connecticut, Inc., priority 2010, dated 2013)
